Data on three compounds can be found in patent US7091212B2, “Chiral dinapsoline” (Purdue Research Foundation, priority 2001, dated 2006).

Amino acid sequences for entries named in this document (tags omitted).
UniProt P18901, whole entry: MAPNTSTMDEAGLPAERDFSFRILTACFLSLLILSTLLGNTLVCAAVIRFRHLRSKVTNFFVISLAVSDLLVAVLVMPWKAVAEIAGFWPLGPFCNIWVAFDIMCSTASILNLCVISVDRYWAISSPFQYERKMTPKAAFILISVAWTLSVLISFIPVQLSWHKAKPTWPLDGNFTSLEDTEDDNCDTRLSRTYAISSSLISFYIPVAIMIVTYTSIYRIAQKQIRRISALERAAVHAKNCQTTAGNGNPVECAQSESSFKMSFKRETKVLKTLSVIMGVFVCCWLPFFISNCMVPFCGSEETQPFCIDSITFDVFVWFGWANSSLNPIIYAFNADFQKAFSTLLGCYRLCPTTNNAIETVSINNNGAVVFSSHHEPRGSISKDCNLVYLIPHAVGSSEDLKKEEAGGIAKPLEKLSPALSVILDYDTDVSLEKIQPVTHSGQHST
UniProt P61169, whole entry: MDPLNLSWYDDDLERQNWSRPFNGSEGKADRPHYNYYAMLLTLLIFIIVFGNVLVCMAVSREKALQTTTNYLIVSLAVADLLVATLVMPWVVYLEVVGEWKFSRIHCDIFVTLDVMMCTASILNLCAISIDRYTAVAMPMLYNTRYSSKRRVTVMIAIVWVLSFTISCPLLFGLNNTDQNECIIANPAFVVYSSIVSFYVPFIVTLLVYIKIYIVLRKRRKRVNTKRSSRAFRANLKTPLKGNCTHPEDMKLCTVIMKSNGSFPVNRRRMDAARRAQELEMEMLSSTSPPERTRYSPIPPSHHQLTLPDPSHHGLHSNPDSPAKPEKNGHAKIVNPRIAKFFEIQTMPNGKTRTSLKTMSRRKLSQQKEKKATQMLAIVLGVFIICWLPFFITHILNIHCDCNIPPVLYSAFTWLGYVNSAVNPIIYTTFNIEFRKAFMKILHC

Test [1] addresses T1, D1 receptors (Rattus norvegicus, UniProt P18901).
T1 construct: from tissue; host or cells: rat striatum
The test can be described thus: D1 receptor binding in rat striatum, [125I]-SCH-23982. Particulars: radioligand [125I]-SCH-23982.

Test [2] addresses D2 receptors (Rattus norvegicus, UniProt P61169). The test can be described thus: biochemical.

For the compound `Oc1ccc2c(c1O)Cc1cccc3c1C2CNC3` (racemic) [(+/−)-Dinapsoline, (±)-8,9-Dihydroxy-2,3,7,11b-tetrahydro-1H-napth[1,2,3-de]isoquinoline], the inhibition constant (Ki) in test [1] was determined as 34 nM; in test [2] it was 50 nM.

With `Oc1ccc2c(c1O)Cc1cccc3c1[C@@H]2CNC3` [(+)-Dinapsoline, R-(+)-8,9-Dihydroxy-2,3,7,11b-tetrahydro-1H-napth[1,2,3-de]isoquinoline], the Ki amounted to 48 nM in test [1] and 43 nM in test [2].

With `Oc1ccc2c(c1O)Cc1cccc3c1[C@H]2CNC3` [(−)-Dinapsoline], the Ki in test [1] turned out to be 4550 nM; in test [2], 589 nM.
